Apparent affinities of Ab-14 variants for a coronavirus HR2 peptide

Source: Li et al. 2023 (doi:10.1038/s41467-023-39022-2), MIT Lincoln Laboratory and A-Alpha Bio; data file from the FLAb repository.

Antigen: PDVDLGDISGINAS, a 14-residue peptide of the SARS-CoV-2 spike HR2 region.

Ab-14 is the parent antibody, in scFv form: VH, then the linker GGGGSGGGGSGGGGS, then VL. The light chain is unchanged in all variants.
VH: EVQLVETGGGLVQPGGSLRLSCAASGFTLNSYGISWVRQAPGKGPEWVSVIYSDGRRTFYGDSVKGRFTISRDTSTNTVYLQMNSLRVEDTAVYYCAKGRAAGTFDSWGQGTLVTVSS
VL: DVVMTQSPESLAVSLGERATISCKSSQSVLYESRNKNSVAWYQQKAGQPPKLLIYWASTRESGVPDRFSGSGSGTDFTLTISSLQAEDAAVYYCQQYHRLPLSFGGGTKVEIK

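These sequences belong to a second round, designed from the earlier measurements on random variants of the parent. Several design methods are mixed in this list. Affinity was read by AlphaSeq, a pooled yeast mating assay with surface-displayed partners. Pairs that bind mate more often; barcode pairs of the diploids are counted by sequencing. A regression on co-assayed BCL2-family reference pairs converts the normalised counts of each replicate to an apparent Kd. Mating was done six times.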

Each variant is given by its three heavy chain CDRs, as the data file delimits them; those of the parent are GFTLNSYGIS, VIYSDGRRTFYGDSVK, GRAAGTFDS. This list holds designs with at most six substitutions. Values are apparent Kd, the geometric mean of the replicates that gave a signal; lower means stronger binding. An entry "nd" has no value in the source: the pair was not observed among the diploids in any replicate. This suggests poor binding but is not conclusive. As a blank, each scFv also met three strains without target: over all heavy chain designs, 1% of these pairings were detected, typically at 120 nM and seldom below 7.0 nM. In the paper, a design with two or fewer of six values counts as a poor binder. Values of this round are not directly comparable with the first-round values of the same sequences.

For GFTLNEYGIS / VIYSDGRRTFYGDSVK / GRSAGTFDS, the assay gave 2.7 nM (6 of 6 replicates).
For GFQLNSYGIS / VIYSDGRRTFYQDSVK / GQAAGTFDS, the assay gave nd (0 of 6 replicates).
For GFTLNSYGSS / VIYSDGRRTFYGDSVK / GRVAGTFDS, the assay gave 2.3 nM (6 of 6 replicates).
For GFQLNSYGIS / VIYSDGRRTFYSDSVK / GQAAGTFDS, the assay gave 5.8 nM (6 of 6 replicates).
For GFTLNDYGIS / VIYSDGRRTQYIDWVK / GRAKGTFDS, the assay gave nd (0 of 6 replicates).
For GFTLNSYGIS / VIYSDGRRTFYSDDVK / GKTAGTFDS, the assay gave 1.8 nM (6 of 6 replicates).
For GFSLNSYGIS / VIYSDGRRTAYCDSVK / GKAAGTFDS, the assay gave 1.5 nM (6 of 6 replicates).
For GFSLNNYGIS / VIYSDGRRTFYVDSVK / GRTAGTFDS, the assay gave 3.6 nM (6 of 6 replicates).
For GFTLNSYGIS / VIYSDGRRTAYQDSVK / GEAAGTFDS, the assay gave 3.6 nM (6 of 6 replicates).
For GFSLNEYGIS / VIYSDGRRTFYCDSVK / GHAAGTFDR, the assay gave 2.7 nM (5 of 6 replicates).
For GFTLNSYGIS / VIYSDGRRTFYIDNVK / GRRAGTFDS, the assay gave nd (0 of 6 replicates).
For GFELNSYGIS / VIYSDGRRTFYIDSVK / GWAAGTFDS, the assay gave 20 nM (2 of 6 replicates).
For GETLNSYGIS / VIYSDGRRTFYGDSVK / GRYAGTDDS, the assay gave nd (0 of 6 replicates).
For GFELNSYGIS / VIYADGRRTFYGDNVK / GQAAGTFDS, the assay gave 450 pM (6 of 6 replicates).
For GQTLNSYGIS / VIYSDGRRTFYGDSVK / GREAKTFDS, the assay gave 310 nM (1 of 6 replicates).
For GFTLNDYGIS / VIYADGRRTMYGDSVK / SRAAGGFDS, the assay gave nd (0 of 6 replicates).
For GFSLNDYGIS / VIYSDGRRTFYSDSVK / GREAGTFDS, the assay gave 370 pM (6 of 6 replicates).
For GFTLNSAGIS / VIYSDGRRTFYSDSVK / GRAGGTFDS, the assay gave nd (0 of 6 replicates).
For GFSLNSYGIS / VIYSDGRRTFYADQVK / GRTAGTFDK, the assay gave 1.6 nM (6 of 6 replicates).
For GFTLNEYGIS / VIYSDGRRTFYGDSVK / GRIAGTFDN, the assay gave 4.3 nM (6 of 6 replicates).
For GFTLNEYGIS / VIYSDGERTFYCDSVK / GRAAGTFDS, the assay gave 6.3 nM (5 of 6 replicates).
For GFSLNSYGIS / VIYADGRRTFYGDSVK / GFAAGTFDS, the assay gave 1.5 nM (6 of 6 replicates).
For GFHLNSYGIS / VIYSDGRRTAYGDSVK / GRAAGTFDS, the assay gave 4.2 nM (6 of 6 replicates).
For GFHLNDYGIS / VIYSDGRRTFYGDSVK / GRLAGTFDS, the assay gave 15 nM (6 of 6 replicates).
For GFDLNSYGIS / VIYSDGRRTFYADSVK / GRTAGKFDS, the assay gave nd (0 of 6 replicates).
For GFTTNSYGIS / VIYSDGRRTFYGDSVE / GRAAGTFRS, the assay gave nd (0 of 6 replicates).
For GFNLNSYGIS / VIYSDGRRTMYGDSVK / GRQAGTFDS, the assay gave 67 nM (6 of 6 replicates).
For GFELNEYGIS / VIYSDGRRTFYGDSVK / GRTAGTFDC, the assay gave nd (0 of 6 replicates).
For GFELNSYGIS / VIYSDGRRTFYGDEVK / GRTAGTFDS, the assay gave 14 nM (6 of 6 replicates).
For GFKLNSYGIS / VIYSDGRRTFYGDQVK / GKTAGTFDS, the assay gave nd (0 of 6 replicates).
For GFVLNSYGIS / VIYSDGRRTFYADSVK / GQEAGTFDS, the assay gave 1.5 nM (6 of 6 replicates).